Measurements taken from patent US4472320A (priority 1981, dated 1984).

Sequences of proteins named here, by UniProt entry; tags and fusion partners are left off. Residues count along the entry.
UniProt O42275, 24-633 limits assumed: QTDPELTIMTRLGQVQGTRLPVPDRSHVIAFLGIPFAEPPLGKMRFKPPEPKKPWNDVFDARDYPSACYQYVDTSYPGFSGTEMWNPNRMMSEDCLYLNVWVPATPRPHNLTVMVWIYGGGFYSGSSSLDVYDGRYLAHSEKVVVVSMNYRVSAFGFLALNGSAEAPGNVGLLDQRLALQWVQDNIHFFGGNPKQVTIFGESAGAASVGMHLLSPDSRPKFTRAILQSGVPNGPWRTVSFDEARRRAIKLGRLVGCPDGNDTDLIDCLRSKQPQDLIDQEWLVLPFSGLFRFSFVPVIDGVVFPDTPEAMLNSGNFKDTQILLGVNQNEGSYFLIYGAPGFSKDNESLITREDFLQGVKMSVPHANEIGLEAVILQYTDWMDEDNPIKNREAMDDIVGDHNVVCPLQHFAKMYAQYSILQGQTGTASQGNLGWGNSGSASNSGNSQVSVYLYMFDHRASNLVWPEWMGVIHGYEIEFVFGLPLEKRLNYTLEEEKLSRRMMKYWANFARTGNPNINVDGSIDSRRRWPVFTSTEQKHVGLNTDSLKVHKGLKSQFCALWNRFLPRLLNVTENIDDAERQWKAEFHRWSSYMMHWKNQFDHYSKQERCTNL
UniProt P81908, whole entry: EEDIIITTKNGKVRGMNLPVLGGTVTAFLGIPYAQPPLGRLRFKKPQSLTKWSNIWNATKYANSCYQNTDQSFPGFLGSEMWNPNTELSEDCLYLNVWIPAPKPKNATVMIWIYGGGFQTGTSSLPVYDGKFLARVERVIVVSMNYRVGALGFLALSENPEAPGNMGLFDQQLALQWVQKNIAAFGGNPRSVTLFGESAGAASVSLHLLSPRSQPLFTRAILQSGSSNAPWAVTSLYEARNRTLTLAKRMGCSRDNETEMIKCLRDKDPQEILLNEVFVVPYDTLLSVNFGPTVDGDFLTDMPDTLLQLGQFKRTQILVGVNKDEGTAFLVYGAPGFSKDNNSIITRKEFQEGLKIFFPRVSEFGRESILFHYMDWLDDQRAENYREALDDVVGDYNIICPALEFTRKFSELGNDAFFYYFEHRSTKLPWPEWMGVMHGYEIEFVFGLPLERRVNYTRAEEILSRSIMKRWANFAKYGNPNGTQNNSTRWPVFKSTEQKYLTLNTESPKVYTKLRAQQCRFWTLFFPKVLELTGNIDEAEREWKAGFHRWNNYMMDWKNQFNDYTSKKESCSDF

Key:
[1] = biological target: AChE, eel (acetylcholinesterase, EC 3.1.1.7) (Electrophorus electricus, UniProt O42275); assay: Inhibition and reactivation kinetics of eel AChE by TDPI; assay type: biochemical, electric eel
[2] = biological target: BuChE, horse (butyrylcholinesterase, EC 3.1.1.8) (Equus caballus, UniProt P81908); assay: Inhibition and reactivation kinetics of horse serum BuChE by TDPI; assay type: biochemical
soman poisoning in mice = assay: Protection of mice against soman; conditions: in conjunction with anticholinergics and oxime
[3] = test system: Butyrylcholinesterase (BuChE, EC 3.1.1.8) from mice serum; assay: Inhibition of mice serum BuChE by TDPI
[4] = test system: AChE from rat-brain homogenate; assay: Inhibition of rat-brain homogenate AChE by TDPI; conditions: incubated with AChE from rat-brain homogenate
rat-hemidiaphragm = assay: Isolated rat-hemidiaphragm: AChE activity and tetanic tension under soman

Compound: C[N+](C)(C)c1cccc(OP2(=O)OCCCO2)c1
- time course of AChE inhibition ([1]; incubated with AChE from electric eel): the decrease in enzyme activity approached a steady state
- ki (ki = k'/KI, Scheme 1) ([1]; pH 7.0, AChE, eel): 140 M⁻¹ s⁻¹
- kr (reactivation by 2-PAM) ([1]; pH 7.0, AChE, eel, 0.5 mM 2PAM, kS subtracted): 0.38 min⁻¹
- %-aging ([1]; pH 7.0, AChE, eel, after 20 hr in presence of 0.5 mM TDPI): 2%
- kS (spontaneous reactivation) ([1]; pH 7.0, AChE, eel, from direct measurements): 0.07 min⁻¹
- time course of BuChE inhibition ([2]; horse serum BuChE): Steady state was not developed
- kr (reactivation by 2-PAM) ([2]; pH 7.0, BuChE, horse, 0.5 mM 2PAM, kS subtracted): 0.05 min⁻¹
- %-aging ([2]; pH 7.0, BuChE, horse, after 20 hr in presence of 0.5 mM TDPI): 69%
- kS (spontaneous reactivation) ([2]; pH 7.0, BuChE, horse, from direct measurements): 0.005 min⁻¹
- ki (ki = k'/KI, Scheme 1) ([2]; pH 7.0, BuChE, horse, from initial slopes): 300 M⁻¹ s⁻¹
- protection of AChE against irreversible phosphorylation (AChE; equal concentration/affinity ratio I/KI = 10, TDPI compared with TMPH (II)): provided better protection of AChE against irreversible phosphroylation than II
- Ki (AChE; read-out: Ki (Michaelis complex with AChE), non-covalent reversible complex AChE.TDPI): 13 µM
- protection against soman (soman poisoning in mice): 5 ×LD50
- time course of BuChE inhibition [3]: Steady state was not developed
- time course of AChE inhibition [4]: the decrease in enzyme activity approached a steady state
- rate of decrease of AChE activity in hemidiaphragm (rat-hemidiaphragm; TDPI added to isolated rat-hemidiaphragm): AChE activity decreased at a rate similar to AChE from either rats-brain homogenate or electric eel
- time to restoration of AChE activity to original level after removal by washing (rat-hemidiaphragm; isolated rat-hemidiaphragm): 15 to 30 min
- protection from irreversible block of tetanic tension caused by soman (rat-hemidiaphragm; pre-treated rat-hemidiaphragm): protected the rat-hemidiaphragm from irreversible block of tetanic tension

Compound: C[C@@H]1CCO[P@](=O)(Oc2cccc([N+](C)(C)C)c2)O1 (relative stereo)
- affinity to AChE (KI) relative to TDPI (AChE; 4-methyl isomers of III): increased the affinity
- kS (spontaneous reactivation) relative to TDPI (AChE; 4-methyl isomers of III): produced a decrease in kS

Compound: C[C@@H]1CCO[P@@](=O)(Oc2cccc([N+](C)(C)C)c2)O1 (relative stereo)
- affinity to AChE (KI) relative to TDPI (AChE; 4-methyl isomers of III): decreased significantly relative to TDPI
- kS (spontaneous reactivation) relative to TDPI (AChE; 4-methyl isomers of III): decreased significantly relative to TDPI
- phosphorylation of AChE relative to TDPI (AChE; 4-methyl isomers of III): decreased significantly relative to TDPI
